Values of other authors as cited in patent publication US20130209522A1, “Drug Release from a Polymer-Controlled Local Antibiotic Delivery System Using a Degradable Bone Graft” (UNIVERSITY OF UTAH RESEARCH FOUNDATION, priority 2012, published 2013).

Settings: Table 3, for reference; cited from earlier work

For `O=C(O)c1cn(C2CC2)c2cc(N3CCNCC3)c(F)cc2c1=O` [Ciprofloxacin], the “pH induced in the surrounding” value is given as “Amphoteric”.
